The values that follow come from patent US9556187B2, “Substituted pyrrolo[3′,2′:5,6]pyrido[4,3-d]pyrimidines and JAK inhibitors comprising the same” (priority 2011, dated 2017).

Sequences of proteins named here, by UniProt entry; tags and fusion partners are left off. A change or cut given only in a name is not applied to a line headed by its entry.
UniProt P23458: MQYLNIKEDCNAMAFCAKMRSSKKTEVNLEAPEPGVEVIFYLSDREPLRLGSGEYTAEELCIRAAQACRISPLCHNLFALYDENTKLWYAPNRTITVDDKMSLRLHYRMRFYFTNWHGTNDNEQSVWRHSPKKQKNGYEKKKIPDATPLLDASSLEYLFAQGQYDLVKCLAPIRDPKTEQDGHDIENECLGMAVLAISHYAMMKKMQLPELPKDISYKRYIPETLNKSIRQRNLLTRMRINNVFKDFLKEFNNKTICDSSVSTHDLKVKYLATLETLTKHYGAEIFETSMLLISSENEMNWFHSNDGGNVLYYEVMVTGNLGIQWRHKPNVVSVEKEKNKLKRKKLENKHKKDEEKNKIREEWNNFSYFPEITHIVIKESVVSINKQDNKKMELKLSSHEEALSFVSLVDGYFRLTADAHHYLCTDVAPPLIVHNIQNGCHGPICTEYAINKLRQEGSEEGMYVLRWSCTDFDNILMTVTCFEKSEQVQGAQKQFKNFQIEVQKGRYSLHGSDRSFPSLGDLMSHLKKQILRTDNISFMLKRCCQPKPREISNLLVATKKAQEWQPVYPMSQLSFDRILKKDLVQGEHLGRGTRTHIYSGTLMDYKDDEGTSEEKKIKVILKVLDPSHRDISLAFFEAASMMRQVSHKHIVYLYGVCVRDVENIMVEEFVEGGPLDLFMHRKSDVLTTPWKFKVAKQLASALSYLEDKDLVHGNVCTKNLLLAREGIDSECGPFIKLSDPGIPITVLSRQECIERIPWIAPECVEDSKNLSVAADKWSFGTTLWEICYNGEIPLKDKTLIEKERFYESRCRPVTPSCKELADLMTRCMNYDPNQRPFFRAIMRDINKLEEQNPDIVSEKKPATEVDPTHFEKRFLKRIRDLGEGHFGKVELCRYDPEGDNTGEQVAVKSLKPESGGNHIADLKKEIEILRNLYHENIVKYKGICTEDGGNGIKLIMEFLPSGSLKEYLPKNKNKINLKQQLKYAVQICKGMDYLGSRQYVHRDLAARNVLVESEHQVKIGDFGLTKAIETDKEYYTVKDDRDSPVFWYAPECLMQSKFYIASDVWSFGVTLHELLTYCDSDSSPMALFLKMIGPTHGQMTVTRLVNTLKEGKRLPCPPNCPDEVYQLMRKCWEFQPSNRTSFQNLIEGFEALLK

Holding throughout (format): biochemical
What all share (conditions): ATP 100 μM

The target of test [1] is T1, JAK1 (Homo sapiens (Human), UniProt P23458). Description: Enzyme assay (LANCE Ultra ULight-JAK1 Peptide), JAK1. (Time-resolved FRET reads energy transfer from a long-lived donor to a nearby acceptor.)
In a further test the target is JAK2 (Homo sapiens (Human), UniProt O60674). Description: Enzyme assay (LANCE Ultra ULight-JAK1 Peptide), JAK2.
The target of test [2] is T1, JAK1. Description: Enzyme assay, JAK1 (Assay Example^b 1).

On to `O=C(OCc1ccccc1)N1CCC(c2nnn3cnc4[nH]ccc4c23)CC1` [Ex 84], for which the IC50 against JAK1 [1] was 0.018 µM; on JAK2 it was 0.089 µM; against JAK1 [2] it was 0.00075 µM.

In general, IC50 refers to the concentration that inhibits the measured activity by half. Read a low IC50 as higher potency.
